Activity calls are given as the source filed them. The calls are words filed in the database; no cut-off is given here.
Assays:
Homo sapiens [1] = species on record: Homo sapiens; assay: Selectivity ratio of inhibition of recombinant human CYP1A2 to IC50 for inhibition of recombinant human soluble epoxide hydrolase
[2] = Selectivity ratio of inhibition of recombinant human CYP1A2 to IC50 for inhibition of recombinant mouse soluble epoxide hydrolase
[3] = Selectivity ratio of inhibition of recombinant human CYP2C9 to IC50 for inhibition of recombinant mouse soluble epoxide hydrolase
[4] = Selectivity ratio of inhibition of recombinant human CYP2D6 to IC50 for inhibition of recombinant mouse soluble epoxide hydrolase
[5] = Selectivity ratio of inhibition of recombinant human CYP3A4 to IC50 for inhibition of recombinant mouse soluble epoxide hydrolase using 7-BFC as substrate
Homo sapiens [6] = species on record: Homo sapiens; assay: Selectivity ratio of inhibition of recombinant human CYP3A4 to IC50 for inhibition of recombinant human soluble epoxide hydrolase using DBF as substrate
Homo sapiens [7] = species on record: Homo sapiens; assay: Selectivity ratio of inhibition of recombinant human CYP2D6 to IC50 for inhibition of recombinant human soluble epoxide hydrolase
Homo sapiens [8] = species on record: Homo sapiens; assay: Selectivity ratio of inhibition of recombinant human CYP3A4 to IC50 for inhibition of recombinant human soluble epoxide hydrolase using 7-BFC as substrate
[9] = molecular target: T1, Polyunsaturated fatty acid 5-lipoxygenase (Homo sapiens) (UniProt P09917); assay: Inhibition of recombinant human full-length LOX5 (1 to 674 residues) expressed in insect cells using arachidonic acid as substrate preincubated for 10 mins followed by substrate addition measured after 20 mins by H2DCFDA probe based fluorescence assay; conditions: time 30.0 min
T1 sequence (whole entry): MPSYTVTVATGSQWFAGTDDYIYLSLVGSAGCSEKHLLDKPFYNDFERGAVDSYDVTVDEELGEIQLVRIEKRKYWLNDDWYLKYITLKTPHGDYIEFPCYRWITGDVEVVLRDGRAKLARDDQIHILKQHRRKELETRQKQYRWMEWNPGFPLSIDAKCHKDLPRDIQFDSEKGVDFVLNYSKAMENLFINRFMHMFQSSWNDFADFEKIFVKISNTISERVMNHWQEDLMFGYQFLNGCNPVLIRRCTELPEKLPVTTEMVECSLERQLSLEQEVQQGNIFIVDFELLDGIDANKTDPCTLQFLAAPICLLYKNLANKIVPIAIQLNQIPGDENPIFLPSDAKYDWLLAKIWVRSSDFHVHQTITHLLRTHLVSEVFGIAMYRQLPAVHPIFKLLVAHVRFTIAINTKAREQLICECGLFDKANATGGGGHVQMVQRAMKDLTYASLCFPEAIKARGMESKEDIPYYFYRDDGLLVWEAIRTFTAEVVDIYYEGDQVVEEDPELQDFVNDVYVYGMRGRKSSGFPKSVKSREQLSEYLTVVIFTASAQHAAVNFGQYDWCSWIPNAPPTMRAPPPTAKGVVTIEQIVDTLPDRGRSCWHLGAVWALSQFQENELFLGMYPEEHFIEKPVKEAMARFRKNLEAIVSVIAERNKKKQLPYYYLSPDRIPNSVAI

[10] = Selectivity ratio of inhibition of recombinant human CYP2C19 to IC50 for inhibition of recombinant mouse soluble epoxide hydrolase
Homo sapiens [11] = species on record: Homo sapiens; assay: Selectivity ratio of inhibition of recombinant human CYP2C9 to IC50 for inhibition of recombinant human soluble epoxide hydrolase
Homo sapiens [12] = species on record: Homo sapiens; assay: Selectivity ratio of inhibition of recombinant human CYP2C19 to IC50 for inhibition of recombinant human soluble epoxide hydrolase
[13] = Selectivity ratio of inhibition of recombinant human CYP3A4 to IC50 for inhibition of recombinant mouse soluble epoxide hydrolase using DBF as substrate

Compound `CC(C)S(=O)(=O)N1CCC(NC(=O)NC23CC4CC(CC(C4)O2)C3)CC1` has a Selectivity ratio (Homo sapiens [1]) of over 100, a Selectivity ratio [2] of over 100 and a Selectivity ratio [3] of over 100. For the same compound, the Selectivity ratio [4] was over 100, the Selectivity ratio [5] was over 100 and the Selectivity ratio (Homo sapiens [6]) was over 100. The Selectivity ratio (Homo sapiens [7]) was over 100, the Selectivity ratio (Homo sapiens [8]) was over 100 and the inhibition [9] was “inactive”. For the same compound, the Selectivity ratio [10] was over 100, the Selectivity ratio (Homo sapiens [11]) was over 100 and the Selectivity ratio (Homo sapiens [12]) was over 100. It also gave a Selectivity ratio [13] of over 100.
